Assay results published in publication PMC7383964 (Chemmedchem, 2020).

Amino acid sequences for entries named in this document (tags omitted). A change or cut given only in a name is not applied to a line headed by its entry.
UniProt P35372, whole entry, looked up: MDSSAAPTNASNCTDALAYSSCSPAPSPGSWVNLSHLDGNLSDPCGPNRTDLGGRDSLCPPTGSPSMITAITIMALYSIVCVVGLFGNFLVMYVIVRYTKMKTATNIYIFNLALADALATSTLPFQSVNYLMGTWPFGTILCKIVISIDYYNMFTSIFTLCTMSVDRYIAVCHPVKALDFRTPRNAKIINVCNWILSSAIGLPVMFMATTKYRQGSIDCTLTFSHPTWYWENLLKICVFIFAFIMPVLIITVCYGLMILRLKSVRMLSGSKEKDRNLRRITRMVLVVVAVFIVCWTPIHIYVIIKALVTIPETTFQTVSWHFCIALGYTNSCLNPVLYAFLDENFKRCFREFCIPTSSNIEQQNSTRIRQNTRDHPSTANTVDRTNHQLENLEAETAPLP
UniProt P41145: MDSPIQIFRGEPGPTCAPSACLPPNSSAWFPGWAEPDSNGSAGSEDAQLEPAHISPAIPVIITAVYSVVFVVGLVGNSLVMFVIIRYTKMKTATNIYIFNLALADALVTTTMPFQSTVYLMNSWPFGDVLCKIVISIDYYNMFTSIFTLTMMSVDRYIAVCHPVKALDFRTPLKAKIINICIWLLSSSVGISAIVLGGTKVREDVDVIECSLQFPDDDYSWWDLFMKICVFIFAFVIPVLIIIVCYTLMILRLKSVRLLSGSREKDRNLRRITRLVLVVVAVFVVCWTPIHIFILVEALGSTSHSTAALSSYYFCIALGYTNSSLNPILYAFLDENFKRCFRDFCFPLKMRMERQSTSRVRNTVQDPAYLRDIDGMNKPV

Columns and labels:
μ‐OR [1] = biological target: T1, μ‐OR (Homo sapiens, UniProt P35372); conditions: read-out: K i μ, cited from earlier work
human κ‐OR = human κ‐OR (Homo sapiens, UniProt P41145); experiment: Radioligand competition binding with [^3H]diprenorphine, membranes of transiently transfected HEK293T cells; conditions: for Ki: read-out: K i κ, [^3H]diprenorphine, HEK293T membranes, mean ±SEM of 3 to 11 experiments in triplicate
human δ‐OR = human δ‐OR (Homo sapiens, UniProt P41143); experiment: as above; conditions: for Ki: read-out: K i δ, [^3H]diprenorphine, HEK293T membranes, mean ±SEM of 3 to 11 experiments in triplicate
μ‐OR [2] = biological target: T1, μ‐OR; experiment: as above; conditions: for Ki: read-out: K i μ, [^3H]diprenorphine, HEK293T membranes, mean ±SEM of 3 to 11 experiments in triplicate; for Selectivity μ/δ / Selectivity μ/κ: subtype selectivity for μ‐OR expressed as ratio of K i values
μ‐OR [3] = biological target: T1, μ‐OR; experiment: IP accumulation assay (IP‐One) for G‐protein mediated signaling; conditions: for IC50: read-out: IC50 for inhibition of DAMGO activity, IP accumulation, antagonist mode, DAMGO at EC80 concentration of 30 nM
μ‐OR [4] = biological target: T1, μ‐OR; experiment: β‐arrestin‐2 recruitment (PathHunter assay); conditions: for Functional property, β‐arrestin‐2 recruitment: agonist mode, HEK‐293 cells with EA‐tagged β‐arrestin‐2 and μ‐OR‐PK1; for IC50: read-out: IC50 for inhibition of DAMGO activity, arrestin recruitment, antagonist mode, DAMGO 1 μM
[5] = Microsomal stability assay; conditions: rat liver microsomes 1 mg protein/mL, NADPH, 37 °C; for Intrinsic clearance: Table 3
HEK293T cells = experiment: Test on cytotoxicity (cell number after 24 h); conditions: 100 nM, n=6, mean±SEM
μ‐OR [6] = biological target: T1, μ‐OR; experiment: Radioligand depletion assay (test on covalent blocking of the receptor); conditions: preincubation 60 min 37 °C, 9 b 60 nM, 16 b 100 nM, four washes, then [^3H]diprenorphine binding; three experiments
δ‐OR = conditions: read-out: K i δ, cited from earlier work
κ‐OR = conditions: read-out: K i κ, cited from earlier work
μ‐OR [7] = biological target: T1, μ‐OR; experiment: Literature binding affinities of known ligands; conditions: ratio of K i values reported by Derrick et al.
[8] = agonist mode, HEK‐293T with μ‐OR and Gαqi

COC(=O)/C=C/C(=O)N[C@@H]1CC[C@@]2(O)[C@H]3Cc4ccc(O)c5c4[C@@]2(CCN3CC2CC2)[C@H]1O5 [listing 1 of 2 here]
Ki (μ‐OR [1]; as reported by Derrick et al.): 0.4 nM
Ki (human κ‐OR): 10 nM
Ki (human δ‐OR): 26 nM
Ki (μ‐OR [2]): 1.5 nM

COc1ccc2c3c1OC1C4(OC)CCC5(CC4CNC(=O)C=Cc4ccccc4)C(C2)N(CC2CC2)CCC315 (stereo not shown)
Ki (human κ‐OR): 18 nM
Ki (human δ‐OR): 54 nM
Ki (μ‐OR [2]): 4.9 nM
Selectivity μ/δ (μ‐OR [2]): 11
Selectivity μ/κ (μ‐OR [2]): 3.7

COc1ccc2c3c1OC1C4(OC)CCC5(CC4CNC(=O)C=Cc4ccc(F)cc4)C(C2)N(CC2CC2)CCC315 (stereo not shown)
Functional property, G‐protein mediated signaling (IP accumulation) (μ‐OR [3]; [8]): neutral antagonist
IC50 (μ‐OR [3]): 9.2 nM
Functional property, β‐arrestin‐2 recruitment (μ‐OR [4]): neutral antagonist
IC50 (μ‐OR [4]): 23 nM
Half‐life [5]: 4.2 ± 1.57 h
Intrinsic clearance (CL’ int) [5]: 28 ± 5 µL/min/mg
Intrinsic clearance [5]: 28 ± 5 µL/min/mg
Cell density relative to the effect of vehicle (DMSO) (HEK293T cells): 106±6%
Covalent blocking of the radioligand binding site (μ‐OR [6]): no blocking of the radioligand binding site
Ki (human κ‐OR): 25 nM
Ki (human δ‐OR): 58 nM
Ki (μ‐OR [2]): 3.3 nM
Selectivity μ/δ (μ‐OR [2]): 18
Selectivity μ/κ (μ‐OR [2]): 7.6

COc1ccc2c3c1OC1C4(OC)CCC5(CC4CNC(=O)N=Nc4ccccc4)C(C2)N(CC2CC2)CCC315 (stereo not shown)
Ki (human κ‐OR): 19 nM
Ki (human δ‐OR): 30 nM
Ki (μ‐OR [2]): 2.3 nM
Selectivity μ/δ (μ‐OR [2]): 13
Selectivity μ/κ (μ‐OR [2]): 8.3

COc1ccc2c3c1OC1C4(OC)CCC5(CC4COc4ccccc4)C(C2)N(CC2CC2)CCC315 (stereo not shown)
Ki (μ‐OR [1]): 14.4 nM
Ki (δ‐OR): 89.3 nM
Ki (κ‐OR): 0.15 nM

COc1ccc2c3c1OC1C4(OC)CCC5(CC4CNC(=O)N=Nc4ccc(F)cc4)C(C2)N(CC2CC2)CCC315 (stereo not shown)
Functional property, G‐protein mediated signaling (IP accumulation) (μ‐OR [3]; [8]): weak partial agonist effect
Efficacy for G‐protein mediated signaling (μ‐OR [3]; agonist mode, HEK‐293T with μ‐OR and Gαqi, relative to DAMGO (100 %)): 19%
IC50 (μ‐OR [3]): 20 nM
Functional property, β‐arrestin‐2 recruitment (μ‐OR [4]): antagonist properties
IC50 (μ‐OR [4]): 22 nM
Half‐life [5]: 2.77 ± 0.267 h
Intrinsic clearance (CL’ int) [5]: 42 ± 4 µL/min/mg
Intrinsic clearance [5]: 42 ± 4 µL/min/mg
Cell density relative to the effect of vehicle (DMSO) (HEK293T cells): 92±6%
Covalent blocking of the radioligand binding site (μ‐OR [6]): no blocking of the radioligand binding site
Ki (human κ‐OR): 10 nM
Ki (human δ‐OR): 36 nM
Ki (μ‐OR [2]): 1.5 nM
Selectivity μ/δ (μ‐OR [2]): 24
Selectivity μ/κ (μ‐OR [2]): 6.7

COc1ccc2c3c1OC1C4(OC)CCC5(CC4COCc4ccc6ccccc6c4)C(C2)N(CC2CC2)CCC315 (stereo not shown)
Ki (μ‐OR [1]): 1.87 nM
Ki (κ‐OR): 0.74 nM

CO[C@]12CC[C@@]3(C[C@@H]1C(C)(C)O)[C@H]1Cc4ccc(O)c5c4[C@@]3(CCN1CC1CC1)[C@H]2O5
Ki (μ‐OR [1]): 0.14 nM
Ki (δ‐OR): 0.73 nM
Ki (κ‐OR): 2 nM

COc1ccc2c3c1OC1C4(OC)CCC5(CC4COCc4ccc(-c6ccccc6)cc4)C(C2)N(CC2CC2)CCC315 (stereo not shown)
Ki (μ‐OR [1]): 1.91 nM
Ki (δ‐OR): 1750 nM
Ki (κ‐OR): 25.8 nM

COc1ccc(N=NC(=O)NCC2CC34CCC2(OC)C2Oc5c(OC)ccc6c5C23CCN(CC2CC2)C4C6)cc1 (stereo not shown)
Ki (human κ‐OR): 11 nM
Ki (human δ‐OR): 63 nM
Ki (μ‐OR [2]): 4 nM
Selectivity μ/δ (μ‐OR [2]): 16
Selectivity μ/κ (μ‐OR [2]): 2.8

COC(=O)/C=C/C(=O)N[C@@H]1CC[C@@]2(O)[C@H]3Cc4ccc(O)c5c4[C@@]2(CCN3CC2CC2)[C@H]1O5 [listing 2 of 2 here]
Ki (κ‐OR; as reported by Derrick et al.): 0.9 nM
Factor by which K i is increased under the authors' assay conditions, κ‐OR (human κ‐OR; own K i versus K i of ref 34): 11
Factor by which K i is increased under the authors' assay conditions, δ‐OR (human δ‐OR; own K i versus K i of ref 34): 3.5
Factor by which K i is increased under the authors' assay conditions, μ‐OR (μ‐OR [2]; own K i versus K i of ref 34): 4

COC12CCC3(CC1CNC(=O)C=Cc1ccccc1)C1Cc4ccc(O)c5c4C3(CCN1CC1CC1)C2O5 (stereo not shown)
Ki (μ‐OR [1]; as reported by Derrick et al.): 0.7 nM
Ki (δ‐OR; as reported by Derrick et al.): 0.7 nM
Selectivity μ/δ (μ‐OR [7]): 1
Selectivity μ/κ (μ‐OR [7]): 4
Ki (κ‐OR; as reported by Derrick et al.): 2.6 nM

COc1ccc2c3c1OC1C4(OC)CCC5(CC4CNC(=O)N=Nc4ccc(Br)cc4)C(C2)N(CC2CC2)CCC315 (stereo not shown)
Ki (human κ‐OR): 10 nM
Ki (human δ‐OR): 28 nM
Ki (μ‐OR [2]): 1.3 nM
Selectivity μ/δ (μ‐OR [2]): 22
Selectivity μ/κ (μ‐OR [2]): 7.7

Like-named read-outs stand apart in the source and are kept apart here.
